Assays:
Format in all cases: biochemical
[1] = target: Human c20S proteasome β2 subunit (Homo sapiens, UniProt P49720+Q99436); test: In vitro proteasome assay, z-VLR-amc substrate; conditions: read-out: Human c20S proteasome inhibition of β2 subunit (IC50); purified human c20S with PA28α, mean ± SD
[2] = target: Human c20S proteasome β1 subunit (Homo sapiens, UniProt P28072+Q99436); test: In vitro proteasome assay, z-LLE-amc substrate; conditions: purified human c20S with PA28α, mean ± SD
[3] = target: Human c20S proteasome β5 subunit (Homo sapiens, UniProt P20618+P28074); test: In vitro proteasome assay, suc-LLVY-amc substrate; conditions: read-out: Human c20S proteasome inhibition of β5 subunit (IC50); purified human c20S with PA28α, mean ± SD

| SMILES | IC50 [1] [nM] | Human c20S proteasome inhibition of β1 subunit (IC50) [2] | IC50 [3] [nM] |
| --- | --- | --- | --- |
| COc1ccc(C[C@@H](C(=O)N[C@@H](CC(=O)N2CCCC2)C(=O)N[C@@H](Cc2ccc(F)cc2)C(=O)N[C@@H](Cc2ccc(F)cc2F)C(=O)[C@@]2(C)CO2)N2CCCC2=O)cc1 | 4080 | No inhibition | 10.8 |
| CCCCCC(=O)N[C@@H](Cc1cccnc1)C(=O)N[C@@H](CCCC)C(=O)N[C@@H](Cc1ccccc1)C(=O)[C@@]1(C)CO1 | 3950 | No inhibition | 13.7 |
| CCCC[C@H](NC(=O)[C@H](CC(=O)N1CCCC1)NC(=O)[C@H](Cc1ccc(OC)cc1)N1CCCC1=O)C(=O)N[C@@H](Cc1ccc(F)cc1F)C(=O)[C@@]1(C)CO1 [compound 45] | 1130 | No inhibition | 4.73 |

Source: publication PMC12691669, “Inhibitors of the 20S proteasome β5 subunit as potent and selective agents against Trichomonas vaginalis” (Antimicrobial Agents and Chemotherapy, 2025)
